The target of this experiment is T1, mTOR (UniProt P42346+P62942).
T1 construct: purchased Calbiochem CBA055
The experiment in a line: mTOR Assay Screening Protocol (K-LISA mTOR Activity Kit, inhibitor with FKBP12). Particulars: mTOR Standard pre-incubated with inhibitor and FKBP12 (35-37 ug/ml); p70S6K-T389 phosphorylation ELISA, absorbance at 450 nm. The class given is biochemical. The method, then: mTOR Assay Screening Protocol
Kit: Calbiochem Cat. No. CBA055: K-LISA mTOR Activity Kit
The following table provides reagent preparation instructions to obtain the volume of Working Solutions (WS) required for 10 wells. Volumes can be scaled to process more samples and provide overage for pipetting error.
Reagent Volume (per 10-well strip) Composition: mTOR Substrate WS: 1 ml Dilution factor: 1:400 FKBP12: Sigma F5398 FK-Binding Protein human, recombinant, expressed in Escherichia coli
A. Protocol for mTOR Kinase Activity and Inhibitor Screening: 1. Remove the required number of strips from the Glutathione-Coated 96-Well Plate and place them in the 96-well frame. 2. Add 100 μl mTOR Substrate WS to each well and incubate for 1 h at room temperature. 3. When performing inhibitor screening/testing, pre-incubate 50 μl mTOR Standard (from step 2) with test inhibitor or wortmannin in a separate tube on ice for 20 min (for example 50 μl mTOR Standard with 1 μl Woltmannin, 50×). […]
*Pre-incubated with inhibitor in step 3 or without inhibitor 6. […] Add 100 pd ELISA Stop Solution to each well and read the absorbance at 450 nm, preferably with a reference wavelength set at 595 nm. […]

In general, IC50 refers to the concentration that gives 50% inhibition. The low end stands for greater potency, the high end for weaker potency. Substance “42-O—[(R)-3-Hydroxypyrrolidin-1-yl)acetyl]-rapamycin [Example 7]” yielded a half-maximal inhibitory concentration (IC50) of 170 nM.

Values taken from US20110098241A1, “RAPAMYCIN ANALOGS AS ANTI-CANCER AGENTS” (PONIARD PHARMACEUTICALS, INC., priority 2008, published 2011).
